Experimental data taken from patent US20130096170A1 (priority 2011, published 2013).
Read-outs that look alike come from different tables or passages of the source.

Tested on: infants 1 to 24 months postoperative from cardiac surgery
Conditions: for UMSS Deeply sedated/Deep sleep, number of patients / UMSS Minimally sedated/Sleepy, number of patients / UMSS Moderately sedated/Somnolent, number of patients / UMSS Unarousable, number of patients / UMSS Awake and alert, number of patients: N = 12, ITT; for UMSS, Mean / UMSS, Median: Pre-dose, ITT; for level of sedation (UMSS): all dose levels
[1] = Post Infusion Hour 10, Low dose (0.35 μg/kg bolus, 0.25 μg/kg/hour infusion)
[2] = Post Infusion Hour 10, Moderate dose (0.7 μg/kg bolus, 0.5 μg/kg/hour infusion)
[3] = Post Infusion Hour 14, High dose (1.0 μg/kg bolus, 0.75 μg/kg/hour infusion)
[4] = Post Infusion Hour 14, Low dose (0.35 μg/kg bolus, 0.25 μg/kg/hour infusion)
[5] = Post Infusion Hour 14, Moderate dose (0.7 μg/kg bolus, 0.5 μg/kg/hour infusion)
[6] = Post Infusion Hour 18, High dose (1.0 μg/kg bolus, 0.75 μg/kg/hour infusion)
[7] = Post Infusion Hour 18, Low dose (0.35 μg/kg bolus, 0.25 μg/kg/hour infusion)
[8] = Post Infusion Hour 18, Moderate dose (0.7 μg/kg bolus, 0.5 μg/kg/hour infusion)
[9] = Post Infusion Hour 22, High dose (1.0 μg/kg bolus, 0.75 μg/kg/hour infusion)
[10] = Post Infusion Hour 22, Low dose (0.35 μg/kg bolus, 0.25 μg/kg/hour infusion)
[11] = Post Infusion Hour 22, Moderate dose (0.7 μg/kg bolus, 0.5 μg/kg/hour infusion)
[12] = Post Infusion Hour 26, High dose (1.0 μg/kg bolus, 0.75 μg/kg/hour infusion)
[13] = Post Infusion Hour 26, Low dose (0.35 μg/kg bolus, 0.25 μg/kg/hour infusion)
[14] = Post Infusion Hour 26, Moderate dose (0.7 μg/kg bolus, 0.5 μg/kg/hour infusion)
[15] = Post-bolus/Pre-infusion, High dose (1.0 μg/kg bolus, 0.75 μg/kg/hour infusion)
[16] = Post-bolus/Pre-infusion, Low dose (0.35 μg/kg bolus, 0.25 μg/kg/hour infusion)
[17] = Post-bolus/Pre-infusion, Moderate dose (0.7 μg/kg bolus, 0.5 μg/kg/hour infusion)
[18] = Pre-bolus/Baseline, High dose (1.0 μg/kg bolus, 0.75 μg/kg/hour infusion)
[19] = Pre-bolus/Baseline, Low dose (0.35 μg/kg bolus, 0.25 μg/kg/hour infusion)
[20] = Pre-bolus/Baseline, Moderate dose (0.7 μg/kg bolus, 0.5 μg/kg/hour infusion)
[21] = High Dose (1.0 μg/kg bolus, 0.75 μg/kg/hour infusion)
[22] = Low Dose (0.35 μg/kg bolus, 0.25 μg/kg/hour infusion)
[23] = Moderate Dose (0.7 μg/kg bolus, 0.5 μg/kg/hour infusion)
[24] = six hours post-infusion, moderate dose

Cc1cccc([C@H](C)c2cnc[nH]2)c1C [dexmedetomidine]
UMSS Deeply sedated/Deep sleep, number of patients [1]: 2 patients
UMSS Minimally sedated/Sleepy, number of patients [1]: 2 patients
UMSS Moderately sedated/Somnolent, number of patients [1]: 1 patients
UMSS Unarousable, number of patients [1]: 0 patients
UMSS Awake and alert, number of patients [2]: 1 patients
UMSS Deeply sedated/Deep sleep, number of patients [2]: 1 patients
UMSS Minimally sedated/Sleepy, number of patients [2]: 4 patients
UMSS Moderately sedated/Somnolent, number of patients [2]: 4 patients
UMSS Unarousable, number of patients [2]: 1 patients
UMSS Awake and alert, number of patients [3]: 4 patients
UMSS Deeply sedated/Deep sleep, number of patients [3]: 1 patients
UMSS Minimally sedated/Sleepy, number of patients [3]: 2 patients
UMSS Moderately sedated/Somnolent, number of patients [3]: 2 patients
UMSS Unarousable, number of patients [3]: 0 patients
UMSS Awake and alert, number of patients [4]: 2 patients
UMSS Deeply sedated/Deep sleep, number of patients [4]: 2 patients
UMSS Minimally sedated/Sleepy, number of patients [4]: 0 patients
UMSS Moderately sedated/Somnolent, number of patients [4]: 4 patients
UMSS Unarousable, number of patients [4]: 0 patients
UMSS Awake and alert, number of patients [5]: 2 patients
UMSS Deeply sedated/Deep sleep, number of patients [5]: 1 patients
UMSS Minimally sedated/Sleepy, number of patients [5]: 3 patients
UMSS Moderately sedated/Somnolent, number of patients [5]: 3 patients
UMSS Unarousable, number of patients [5]: 0 patients
UMSS Awake and alert, number of patients [6]: 2 patients
UMSS Deeply sedated/Deep sleep, number of patients [6]: 0 patients
UMSS Minimally sedated/Sleepy, number of patients [6]: 0 patients
UMSS Moderately sedated/Somnolent, number of patients [6]: 2 patients
UMSS Unarousable, number of patients [6]: 0 patients
UMSS Awake and alert, number of patients [7]: 0 patients
UMSS Deeply sedated/Deep sleep, number of patients [7]: 1 patients
UMSS Minimally sedated/Sleepy, number of patients [7]: 2 patients
UMSS Moderately sedated/Somnolent, number of patients [7]: 2 patients
UMSS Unarousable, number of patients [7]: 0 patients
UMSS Awake and alert, number of patients [8]: 1 patients
UMSS Deeply sedated/Deep sleep, number of patients [8]: 0 patients
UMSS Minimally sedated/Sleepy, number of patients [8]: 3 patients
UMSS Moderately sedated/Somnolent, number of patients [8]: 1 patients
UMSS Unarousable, number of patients [8]: 1 patients
UMSS Awake and alert, number of patients [9]: 0 patients
UMSS Deeply sedated/Deep sleep, number of patients [9]: 0 patients
UMSS Minimally sedated/Sleepy, number of patients [9]: 0 patients
UMSS Moderately sedated/Somnolent, number of patients [9]: 1 patients
UMSS Unarousable, number of patients [9]: 0 patients
UMSS Awake and alert, number of patients [10]: 1 patients
UMSS Deeply sedated/Deep sleep, number of patients [10]: 0 patients
UMSS Minimally sedated/Sleepy, number of patients [10]: 0 patients
UMSS Moderately sedated/Somnolent, number of patients [10]: 2 patients
UMSS Unarousable, number of patients [10]: 0 patients
UMSS Awake and alert, number of patients [11]: 1 patients
UMSS Deeply sedated/Deep sleep, number of patients [11]: 0 patients
UMSS Minimally sedated/Sleepy, number of patients [11]: 0 patients
UMSS Moderately sedated/Somnolent, number of patients [11]: 0 patients
UMSS Unarousable, number of patients [11]: 1 patients
UMSS Awake and alert, number of patients [12]: 0 patients
UMSS Deeply sedated/Deep sleep, number of patients [12]: 0 patients
UMSS Minimally sedated/Sleepy, number of patients [12]: 0 patients
UMSS Moderately sedated/Somnolent, number of patients [12]: 0 patients
UMSS Unarousable, number of patients [12]: 0 patients
UMSS Awake and alert, number of patients [13]: 0 patients
UMSS Deeply sedated/Deep sleep, number of patients [13]: 0 patients
UMSS Minimally sedated/Sleepy, number of patients [13]: 1 patients
UMSS Moderately sedated/Somnolent, number of patients [13]: 0 patients
UMSS Unarousable, number of patients [13]: 0 patients
UMSS Awake and alert, number of patients [14]: 0 patients
UMSS Deeply sedated/Deep sleep, number of patients [14]: 0 patients
UMSS Minimally sedated/Sleepy, number of patients [14]: 0 patients
UMSS Moderately sedated/Somnolent, number of patients [14]: 0 patients
UMSS Unarousable, number of patients [14]: 0 patients
UMSS Awake and alert, number of patients [15]: 0 patients
UMSS Deeply sedated/Deep sleep, number of patients [15]: 0 patients
UMSS Minimally sedated/Sleepy, number of patients [15]: 0 patients
UMSS Moderately sedated/Somnolent, number of patients [15]: 0 patients
UMSS Unarousable, number of patients [15]: 11 patients
UMSS Awake and alert, number of patients [16]: 0 patients
UMSS Deeply sedated/Deep sleep, number of patients [16]: 1 patients
UMSS Minimally sedated/Sleepy, number of patients [16]: 1 patients
UMSS Moderately sedated/Somnolent, number of patients [16]: 0 patients
UMSS Unarousable, number of patients [16]: 10 patients
UMSS Awake and alert, number of patients [17]: 0 patients
UMSS Deeply sedated/Deep sleep, number of patients [17]: 2 patients
UMSS Minimally sedated/Sleepy, number of patients [17]: 0 patients
UMSS Moderately sedated/Somnolent, number of patients [17]: 1 patients
UMSS Unarousable, number of patients [17]: 9 patients
UMSS Awake and alert, number of patients [18]: 0 patients
UMSS Deeply sedated/Deep sleep, number of patients [18]: 1 patients
UMSS Minimally sedated/Sleepy, number of patients [18]: 0 patients
UMSS Moderately sedated/Somnolent, number of patients [18]: 0 patients
UMSS Unarousable, number of patients [18]: 10 patients
UMSS Awake and alert, number of patients [19]: 0 patients
UMSS Deeply sedated/Deep sleep, number of patients [19]: 0 patients
UMSS Minimally sedated/Sleepy, number of patients [19]: 1 patients
UMSS Moderately sedated/Somnolent, number of patients [19]: 0 patients
UMSS Unarousable, number of patients [19]: 11 patients
UMSS Awake and alert, number of patients [20]: 0 patients
UMSS Deeply sedated/Deep sleep, number of patients [20]: 1 patients
UMSS Minimally sedated/Sleepy, number of patients [20]: 0 patients
UMSS Moderately sedated/Somnolent, number of patients [20]: 0 patients
UMSS Unarousable, number of patients [20]: 11 patients
UMSS, Mean [21]: 3.9
UMSS, Median [21]: 4.0
UMSS, Mean [22]: 3.8
UMSS, Median [22]: 4.0
UMSS, Mean [23]: 3.9
UMSS, Median [23]: 4.0
level of sedation (UMSS) (after 4 hours infusion through the end of infusion): moderate level of sedation (UMSS 1-3)
level of sedation (UMSS) (pre-dose to 2 hours after infusion): deep sedation (UMSS 3-4)
mean change from Baseline maximum BIS value (pre-infusion, high dose): −8.2±13.43
mean change from Baseline maximum BIS value (pre-infusion, moderate dose): −5.8±13.22
incidence of patients "moderately sedated/somnolent" (UMSS) (six hours post-infusion, high dose): 50.0%
incidence of patients "moderately sedated/somnolent" (UMSS) (six hours post-infusion, low dose): 58.3%
incidence of patients "moderately sedated/somnolent" (UMSS) [24]: 41.7%
mean change from Baseline maximum BIS value [24]: 14.2±12.21
